What was measured:
Format in all cases: cell-based
BTK = BTK (Homo sapiens, UniProt Q06187); assay: NanoBRET live-cell target engagement of BTK in HEK293 cells
TMD8 cells = assay: Cell viability, CellTiter-Glo 2.0, TMD8 cells
Mino cells = assay: Cell viability, CellTiter-Glo 2.0, Mino cells

The chains behind the UniProt entries cited, without tags or fusion partners. Where a name states a change or a piece, a line headed by the entry shows the natural chain unless it says otherwise.
UniProt Q06187: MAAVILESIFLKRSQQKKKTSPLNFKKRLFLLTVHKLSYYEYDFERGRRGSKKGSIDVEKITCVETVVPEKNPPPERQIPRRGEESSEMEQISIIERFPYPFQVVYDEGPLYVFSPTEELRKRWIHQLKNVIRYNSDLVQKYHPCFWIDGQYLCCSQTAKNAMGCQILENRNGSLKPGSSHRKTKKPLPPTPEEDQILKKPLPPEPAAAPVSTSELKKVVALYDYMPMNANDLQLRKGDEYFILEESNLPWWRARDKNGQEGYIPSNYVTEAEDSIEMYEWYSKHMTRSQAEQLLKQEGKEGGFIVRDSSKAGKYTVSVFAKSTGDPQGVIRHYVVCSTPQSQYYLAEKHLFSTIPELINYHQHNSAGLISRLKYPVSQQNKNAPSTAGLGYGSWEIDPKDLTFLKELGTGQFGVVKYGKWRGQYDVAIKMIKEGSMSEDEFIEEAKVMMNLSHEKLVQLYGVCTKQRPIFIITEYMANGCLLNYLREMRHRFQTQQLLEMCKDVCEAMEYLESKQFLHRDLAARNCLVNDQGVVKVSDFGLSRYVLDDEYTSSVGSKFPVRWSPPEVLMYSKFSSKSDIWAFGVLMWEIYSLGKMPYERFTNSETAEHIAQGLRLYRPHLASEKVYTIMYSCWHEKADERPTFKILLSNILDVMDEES

Which “Fold less potent than GDC-0853 at engaging BTK” value (BTK) does the source give for `C[C@H]1CN(C(=O)CNc2cccc3c2C(=O)N(C2CCC(=O)NC2=O)C3=O)CCN1c1ccc(Nc2cc(-c3ccnc(N4CCn5c(cc6c5CC(C)(C)C6)C4=O)c3CO)cn(C)c2=O)nc1` (stereo partly drawn) [PTD10, 4-((2-((S)-4-(6-((2’-(7,7-dimethyl-1-oxo-1,3,4,6,7,8-hexahydro-2H-cyclopenta[4,5]pyrrolo[1,2-a]pyrazin-2-yl)-3’-(hydroxymethyl)-1-methyl-6-oxo-1,6-dihydro-[3,4’-bipyridin]-5-yl)amino)pyridin-3-yl)-3-methylpiperazin-1-yl)-2-oxoethyl)amino)-2-(2,6-dioxopiperidin-3-yl)isoindoline-1,3-dione] here?
The value was 8 fold.

What about the “Fold more potent than pomalidomide, cell growth” value (TMD8 cells) of the same compound?
The value was “over 100 fold”.

And the “Fold more potent than GDC-0853, cell growth” value (Mino cells)?
Its value is 3 fold.

From publication PMC10332445 (Journal of medicinal chemistry, 2023)
